# Ab-14 light chain CDR variants: yeast mating affinities

Target peptide (SARS-CoV-2 spike, HR2 region): PDVDLGDISGINAS

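This is the validation round: designs drawn from the data on random variants, tested in the same kind of assay. Group labels follow the data file (Ctrl: baseline library sampled from a position-specific scoring matrix, with some repeated check sequences; En: ensemble of fine-tuned language models; GP: Gaussian process model; HC: hill climbing; Gen: genetic algorithm; Gibbs: Gibbs sampling; a sequence that several methods proposed may carry one label only). The assay is AlphaSeq: two haploid yeast populations carry antibody and antigen on their surface. Pairs that bind mate more often; barcode pairs of the diploids are counted by sequencing. Each replicate has its own calibration line, from reference interactions of the BCL2 family. The assay was run in six technical replicates.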

Parent scFv Ab-14: VH joined to VL by the linker GGGGSGGGGSGGGGS. Changes lie in the light chain CDRs alone.
VH: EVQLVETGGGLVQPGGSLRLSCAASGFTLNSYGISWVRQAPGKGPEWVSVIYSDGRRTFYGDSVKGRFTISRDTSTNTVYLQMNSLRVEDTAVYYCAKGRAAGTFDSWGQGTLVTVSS
VL: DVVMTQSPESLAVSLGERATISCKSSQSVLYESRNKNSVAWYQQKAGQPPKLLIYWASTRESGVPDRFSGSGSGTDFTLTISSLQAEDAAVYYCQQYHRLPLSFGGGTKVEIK

Variants are written as CDR1, CDR2 and CDR3 of the light chain (limits as in the source). Parent: KSSQSVLYESRNKNSVA, WASTRES, QQYHRLPLS.
Numbers give log10(Kd / nM), so 0 is 1 nM and 3 is 1 µM. Smaller is tighter.
Averages over replicates are reported, and they cover detected replicates only.
"nd" marks a missing value. The strain was present, yet no cells mated with the target were sequenced in any replicate, which points to weak or no binding.
The authors' rule: three or more of the six replicates give a measured affinity, fewer mean a poor binder.
The parent sequence was in this pool as ten entries: three were never detected, three once, and four in most replicates, with averages from 0.34 to 2.37.
Values of this round are not directly comparable with the first-round values of the same sequences.
As a blank, each scFv also met three strains without target: over all light chain designs, 4% of these pairings were detected, typically at 2.64 and seldom below 1.59. The control count says in how many pairings with the empty strains this scFv gave a signal.

CDR-L1	CDR-L2	CDR-L3	group	mean, log10 nM	detected	control signals
KSSQSVLYENRNKNSVA	QASTRES	QQYHRLPLS	Ctrl	0.97	6/6	0/18
KLMQSYLYESRNKNSVA	NASTRES	QQYHRLPLS	GP_Gen	0.34	6/6	1/18
RLSLEHTGYGEMMNNIA	QGSTKQF	QQYDRLPLH	En_Gibbs	0.80	6/6	2/18
KVSCSYLLESRNKNSVA	EASTRES	QQYHRLPLS	GP_HC	-0.20	6/6	2/18
KISSLYNMTFEASNNVA	EMVTREK	QQYNRLPLS	En_Gen	nd	0/6	0/18
KSQISVLYESRNHNHVA	WASTRES	QQYHRLPLS	Ctrl	2.26	3/6	0/18
KSSQSVLYESNNKNSVA	WASTRES	QQYHMLPLS	Ctrl	1.89	6/6	0/18
FIEHFGEDSNRNSKNIA	SKELRQV	QQYDRLPLS	En_Gibbs	0.41	6/6	0/18
KISQSVLYESRNWNAVA	EASQRES	QDYHRLPLS	GP_Gibbs	-0.05	6/6	0/18
KLSQSVLYEWRNKNSVA	EASTRES	QQYHRLPLS	GP_Gen	-0.05	6/6	1/18
KSSQSVLYEVRNKNSVA	AASTRES	QHYHRLPLS	Ctrl	1.99	6/6	2/18
KISESMNFAQFNKQSIA	EVSNRSS	QSYNRLPLS	En_Gen	2.09	5/6	1/18
KLDQGWLYESRNKNSVA	GASTRES	QQYHRLPLS	GP_HC	-0.27	6/6	5/18
KMSQSVLLESRNKNSVA	WDSTRES	QQYHRLPLC	Ctrl	1.44	5/6	0/18
KLPQSWLYESRNKNSVA	NASTREQ	QQYHRLPLS	GP_Gen	-0.46	6/6	1/18
KVSNSVDGEDRNKNAVA	DASTRES	QQYHRLPLS	GP_Gibbs	-0.26	6/6	0/18
KMTEQLLNGEREPSNIA	AQVIGSD	QQYHRLPLI	En_Gibbs	nd	0/6	2/18
KISQMITYESTWHNAIA	QTSEREE	QQYHRLPLS	En_HC	0.95	4/6	0/18
KLVQFMNRGTHHTSNIA	DAQNRID	QQYFRLPLA	En_Gen	1.82	3/6	0/18
KLRQVTEYESFNKNSVA	QTETRED	QDYDRLPLS	En_HC	nd	0/6	1/18
SVSNLGMVPSVWENSIA	DTEIVEE	QQYSRLPLL	En_Gibbs	0.76	6/6	0/18
KLPQSVKYESRNKNSVA	HASTRED	QQYHRLPLS	GP_HC	0.70	6/6	0/18

The remaining entries, values ahead:

mean, log10 nM	detected	control signals	CDR-L1	CDR-L2	CDR-L3	group
-0.18	6/6	1/18	KSSQSDLYEGKNKNSVA	RASTRES	QQYARLPLS	Ctrl
2.47	1/6	1/18	KSGWSVLYESRNKNSVA	MASTRES	QQYHRLPLS	Ctrl
0.35	6/6	1/18	KWQQSSDYESRNFNSVA	NASTRCS	QQYHRLPLS	GP_Gibbs
2.00	6/6	0/18	TITEFMGNLQQARNSVA	DTSTLGN	QSYDRLPLS	En_Gen
0.60	6/6	2/18	KLVGVDDNDPNPSHNIA	DVSTLDN	QQYHRLPLD	En_Gibbs
0.36	6/6	5/18	KSDQSWLYGSRNKNSVA	NASERES	QQYHRLPLS	GP_Gibbs
2.86	4/6	5/18	KLSQFSRMESRNKNSVA	DNSTRES	QQYDRLPLS	En_HC
-0.05	6/6	0/18	KSSISYLGEQRNKNSVA	EASTRES	QQYHRLPLS	GP_HC
2.42	1/6	0/18	KMIQSVLYESRNKNSVA	WDSTRES	GQYHRLPLS	Ctrl
0.74	6/6	0/18	KMSQEVWLESRNVNSVA	MASCRED	QQYHRLPLS	GP_Gibbs
nd	0/6	0/18	KQRQSVLYESRNKNSVA	WASTRES	QQYHRLPLS	Ctrl
nd	0/6	0/18	KISQSVQYESRNKNSVA	WASTRES	QQYHRCPLS	Ctrl
1.85	5/6	1/18	KISMTTTFESRNKNSVA	ENSTRES	QSYHRLPLS	En_HC
0.59	6/6	0/18	HSSPSVLYESRNGNSVA	NASTRLS	QQYHRLPLS	GP_HC
1.35	4/6	0/18	KIAQLVMETSKNKNNVA	EVSTLPD	QQYHRLPLS	En_HC
1.10	6/6	0/18	KLPQSVPYESRNKNSVA	NASTRMS	QQYHRLPLS	GP_Gen
-0.33	6/6	3/18	KQSQSVLYESRNTNSVA	DASTRES	QQYHRLPLS	GP_HC
-0.19	6/6	0/18	HSSPSVLYESRNKNSVA	AGSTRES	QQYHRLPLS	GP_HC
0.65	6/6	1/18	SMSWAHFNGDNWKNSIA	DATHLAY	QQYSRLPIT	En_Gibbs
-0.09	6/6	3/18	KLMWSDQYWSRNKNSVA	GASTRES	QQYHRLPLS	GP_Gibbs
-0.14	6/6	2/18	KVSQSVLYESRNKNSVA	NASTRFS	QQYHRLPLS	GP_Gen
-0.01	6/6	2/18	QISMLLNFESKKGNNVA	QMETRVN	QQYDRLPLS	En_Gen
nd	0/6	0/18	KSSQSVLYESRNKNSVA	WASTRRT	QQYHRLPLS	Ctrl

Picked from the list: the 4 lowest averages where every replicate gave a value.

CDR-L1,CDR-L2,CDR-L3,group,"mean, log10 nM",detected,control signals
KLPQSWLYESRNKNSVA,NASTREQ,QQYHRLPLS,GP_Gen,-0.46,6/6,1/18
KQSQSVLYESRNTNSVA,DASTRES,QQYHRLPLS,GP_HC,-0.33,6/6,3/18
KLDQGWLYESRNKNSVA,GASTRES,QQYHRLPLS,GP_HC,-0.27,6/6,5/18
KVSNSVDGEDRNKNAVA,DASTRES,QQYHRLPLS,GP_Gibbs,-0.26,6/6,0/18

Data: MIT Lincoln Laboratory AlphaSeq set, Li et al. 2023, doi:10.1038/s41467-023-39022-2, as distributed in FLAb.